Data on one compound can be found in patent publication US7498304B2, “Angiogenesis-modulating compositions and uses” (Curis, Inc., priority 2002, dated 2009).

One assay concerns embryonic prostate. Particulars: W. Bushman, unpublished result; cited from earlier work.
In assay [1] the test system is Shh signaling pathway in MEFs homozygous for ptc-lacZ (cell line 23-1). Description: β-galactosidase activity in ptc-lacZ homozygous mouse embryonic fibroblasts. Format: cell-based. To be noted: normalized to whole protein content.

Take `CC1=C2C[C@H]3[C@@H](CC=C4C[C@@H](O)CC[C@@]43C)[C@@H]2CC[C@]12O[C@@H]1C[C@H](C)CN[C@H]1[C@H]2C` [cyclopamine]: the “growth and branching of embryonic prostate” value in the assay on embryonic prostate was “inhibits growth and branching”. In assay [1], the β-galactosidase activity entry is recorded as “β-galactosidase activity is decreased”.
